Article PMC3896271 (Beilstein Journal of Organic Chemistry, 2013)

Protein sequences, listed by entry. Tags and fused reporters are not part of them.
UniProt P33535, whole entry: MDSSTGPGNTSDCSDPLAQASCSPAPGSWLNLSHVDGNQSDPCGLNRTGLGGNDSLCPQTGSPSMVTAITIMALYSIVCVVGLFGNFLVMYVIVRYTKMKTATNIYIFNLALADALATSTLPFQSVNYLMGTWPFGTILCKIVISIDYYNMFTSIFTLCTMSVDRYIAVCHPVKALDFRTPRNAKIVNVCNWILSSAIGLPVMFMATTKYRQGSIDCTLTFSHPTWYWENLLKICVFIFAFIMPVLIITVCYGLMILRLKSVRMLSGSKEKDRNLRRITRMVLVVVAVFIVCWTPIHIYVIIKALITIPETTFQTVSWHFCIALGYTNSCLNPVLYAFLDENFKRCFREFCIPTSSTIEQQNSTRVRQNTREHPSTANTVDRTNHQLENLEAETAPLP

Target: T1, rat μ opioid receptor (Rattus norvegicus, UniProt P33535)
T1 construct: expressed in transfected cells; host or cells: CHO cells, stably transfected; membranes
Format: binding

DAMGO [reference compound]
displacement of [3H]diprenorphine: > 90%
